# Results taken from PubChem BioAssay AID504408 (Broad Institute, 2011).
# The list shows a part of the results, in another mix than the full data. The source made the active and inactive calls.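 How the source made its calls: active means mean replicate activation of at least 50% with a set share of replicates each reaching 50%; inconclusive means only one of those two conditions met; inactive means mean below 50% and too few replicates reaching it.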
# Test: HSF-1 activators, primary screen, NIH3T3-HGL cells, MG132 stress, luminescence, single point (AID 504408);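 further: 0% = median of the neutral control wells and 100% = twice that signal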
# Settings: NIH3T3-HGL HSF-1 luciferase reporter, MG132, 8 h; at 9 µM; hits give high values; 100% = twice DMSO control signal
row,SMILES,activation
1,O=C(OC1CN2CCC1CC2)c1cccc([N+](=O)[O-])c1 (stereo not given),inactive: -8.91%
2,Cc1cc(SC(NC(=O)c2ccccc2)C(Cl)(Cl)Cl)nc(C(C)C)n1 (stereo not given),inactive: -1.6%
3,CCCCOc1ccc(C(=O)NCC2(N3CCCCC3)CCCCC2)cc1OC,inactive: 7.25%
4,CCOC(=O)Nc1ccc([As](=O)(O)O)c(O)c1,inactive: 0.654%
5,O=[N+]([O-])c1ccc(Nc2ccc(Oc3ccc([N+](=O)[O-])cc3[N+](=O)[O-])cc2)c([N+](=O)[O-])c1,inactive: 2.56%
6,O=P(Nc1ccccn1)(c1cccc2ccccc12)c1cccc2ccccc12,inactive: -0.357%
7,Cc1cc(SC(NC=O)C(Cl)(Cl)Cl)ncn1 (stereo not given),inactive: 3.88%
8,CCOC(=O)Nc1cccc([As](=O)(O)O)c1,inactive: -8.65%
9,O=C(Nc1cc([As](=O)(O)O)ccc1O)c1ccccc1,inactive: 14.1%
10,O=[N+]([O-])c1cccc(NC2=NCC(CBr)S2)c1 (stereo not given),inactive: 12.4%
11,O=C(O)CNc1ccc([As](=O)(O)O)cc1,inactive: -2.59%
12,CC(C)(C)C(=O)NC(Sc1ccncn1)C(Cl)(Cl)Cl (stereo not given),inactive: 2.2%
13,O=[N+]([O-])c1ncn(CCn2ncnc2[N+](=O)[O-])n1,inactive: -8.96%
14,O=[N+]([O-])c1cccc2n[nH]nc12,inactive: 6.99%
15,CC(=O)N1C2C3N(C(C)=O)C1C1N(C(C)=O)C(C(N1C(C)=O)N3C(C)=O)N2C(C)=O,inactive: -7.92%
16,CCc1nc2c(n1)c1c(non1O)c1c2no[n+]1[O-],active: 149%
17,O=[N+]([O-])c1cc([N+](=O)[O-])c(CCNc2ccccc2)c([N+](=O)[O-])c1,inactive: 6.42%
18,Cc1ccc(NP(=O)(Oc2ccccc2)Oc2ccccc2)nc1,inactive: 17.8%
19,COc1ccc(C2=NCC(CBr)S2)cc1 (stereo not given),inactive: -14.5%
20,CN(C)C(=O)OCCc1n(C)cc[n+]1C,inactive: -18.8%
21,CC(C)=N/N=C(\N)N[N+](=O)[O-],inactive: 1.57%
22,CC1CCN(C(=O)Oc2c(Cl)cc(Cl)c3cccnc23)CC1,inactive: 12.6%
23,C[N+]1=C2C=CC=CC=C2SC12C([N+](=O)[O-])=CC([N+](=O)[O-])=C[C-]2[N+](=O)[O-] (stereo not given),inactive: 22.5%
24,Nc1ccc([As](=O)(O)c2ccc(N)cc2)cc1,inactive: -3.35%
25,CCN(/C(=N/P(=O)(N1CCOCC1)N1CCOCC1)N1CCOCC1)c1ccc(OC)cc1,inactive: 18.9%
26,Cc1ccc(OP(=O)(Nc2nccs2)Oc2ccc(C)cc2)cc1,inactive: 12.8%
27,COc1ccccc1OP(=O)(Nc1ccc(C)cn1)Oc1ccccc1OC,inactive: 13.7%

row,SMILES,activation
1,Clc1ccc(Cl)c(NC2=NCC(CBr)S2)c1 (stereo not given),inactive: -3.76%
2,CN1CCCC(OC(=O)C(c2ccccc2)c2ccccc2)C1 (stereo not given),inactive: -4.6%
3,NC(=O)c1cc([N+](=O)[O-])cc([N+](=O)[O-])c1N,inactive: -8.67%
4,Cc1ccc(N/C(=N/P(=O)(N2CCOCC2)N2CCOCC2)N2CCOCC2)cc1,inactive: 4.97%
5,CC(C)CC(=O)NC(Sc1ccc(Cl)cc1)C(Cl)(Cl)Cl (stereo not given),inactive: 3.11%
6,Nc1cc(N)c2nonc2c1[N+](=O)[O-],inactive: 10.5%
7,Cc1c2non([O-])c-2c(C)[n+](=O)[n+]1[O-],inactive: -4.8%
8,O=C(NC(Sc1ccncn1)C(Cl)(Cl)Cl)c1ccccc1 (stereo not given),inactive: 4.14%
9,Oc1ccccc1CNc1ccccn1,inactive: 24.3%
10,Cc1ccc(NP(=O)(Oc2ccccc2F)Oc2ccccc2F)nc1,inactive: -0.704%
11,CN(C(=O)Cc1ccc(Cl)c(Cl)c1)[C@H]1CCCC[C@@H]1N1CCCC1,inactive: -7.06%
12,CCOP(=O)(Nc1ccccc1)OCC,inactive: 3.11%
13,Cc1cc(SC(NC(=O)c2ccc(F)cc2)C(Cl)(Cl)Cl)ncn1 (stereo not given),inactive: 33.5%
14,O=C(O)c1ccccc1[As](=O)(O)O,inactive: 3.13%
15,CC(=O)Nc1ccc([As](=O)(O)O)cc1,inactive: 5.54%
16,O=P(Nc1nc2ccc(Cl)cc2s1)(c1ccccc1)c1ccccc1,inactive: 29.8%
17,CCN(N=Nc1nonc1N)c1nonc1N,inactive: -5.07%
18,Nc1cccc2ccc([As](=O)(O)O)cc12,inactive: -5.4%
19,O=[N+]([O-])c1cc([N+](=O)[O-])c(CCN2CCOCC2)c([N+](=O)[O-])c1,inactive: 3.99%
20,CCNC(=S)/N=C(\N)N[N+](=O)[O-],inactive: 29.7%
21,O=C(NC1CCS(=O)(=O)C1)NP(=S)(Oc1ccccc1)Oc1ccccc1 (stereo not given),inactive: 11.2%
22,Cc1ccc(NP(=O)(Oc2cccc(C)c2)Oc2cccc(C)c2)nc1,inactive: 6.46%
23,CCOC(=O)NC(Sc1ccccc1)C(Cl)(Cl)Cl (stereo not given),inactive: 1.84%
24,c1ccc(-c2nn[nH]n2)c(-c2nn[nH]n2)c1,inactive: -11.2%
25,CN(C)C(=O)Oc1noc2ccccc12,inactive: 11.1%
26,Cc1ccccc1OP(=O)(Nc1ccccn1)Oc1ccccc1C,inactive: -0.903%
27,CC(=O)NC(SC(=S)N(CC(C)C)CC(C)C)C(Cl)(Cl)Cl (stereo not given),inactive: -10.5%

row,SMILES,activation
1,Cc1ccc(OP(=O)(Nc2ccccn2)Oc2ccc(C)cc2)cc1,inactive: 7.18%
2,COC(=O)c1cc2c(s1)N=C(c1ccccc1)N(C)P2(=O)N1CCOCC1 (stereo not given),inactive: -18.1%
3,CCC(=O)N1C2C3N(C(=O)CC)C1C1N(C(=O)CC)C(C(N1C(=O)CC)N3C(=O)CC)N2C(=O)CC,inactive: 1.96%
4,O=C(OC1CN2CCC1CC2)c1ccccc1 (stereo not given),inactive: 4.64%
5,CC(C)(C)C(=O)NC(Sc1ccccc1)C(Cl)(Cl)Cl (stereo not given),inactive: 11.6%
6,CCOc1ccc(C2=NCC(CBr)S2)cc1 (stereo not given),inactive: -6.58%
7,O=P1(Nc2nc3ccc(Cl)cc3s2)COc2ccccc2O1 (stereo not given),inactive: 37.1%
8,CC(=O)Nc1ccc(Oc2c([N+](=O)[O-])cc([N+](=O)[O-])cc2[N+](=O)[O-])cc1,inactive: -11.1%
9,CC(=O)Nc1ccc([As](=O)(O)O)c(O)c1,inactive: -8.68%
10,CC(=O)c1ccc(N2CC2c2ccncc2)cc1 (stereo not given),inactive: -13.4%
11,C[C@@H]1C=CCP(=O)(Oc2ccccc2)O1 (stereo not given in full),inactive: 1.98%
12,C[C@H]1OP(=O)(Oc2ccccc2)C[C@@H]2O[C@@H]21 (stereo not given in full),inactive: -5.84%
13,c1nnnn1CCn1cnnn1,inactive: -14.4%
14,CC(C)C(=O)NC(Sc1ccccc1)C(Cl)(Cl)Cl (stereo not given),inactive: -47.6%
15,O=P(Nc1nccs1)(c1ccccc1)c1ccccc1,inactive: -4.31%
16,C[C@H]1OP(=O)(Oc2ccccc2)[C@H](O)[C@H](O)[C@H]1N=[N+]=[N-] (stereo not given in full),inactive: 13.9%
17,O=P(Nc1nc2ccccc2s1)(c1ccccc1)c1ccccc1,inactive: 2.59%
18,O=P(Nc1ccccn1)(c1ccc(Br)cc1)c1ccc(Br)cc1,inactive: -1.41%
19,CN(C)C1(CNC(=O)c2ccc(Cl)c(S(N)(=O)=O)c2)CCCCC1,inactive: 38.8%
20,Nc1ccc([As](=O)(O)c2ccc([N+](=O)[O-])cc2)cc1,inactive: -1.43%
21,C(Cc1nn[nH]n1)Cc1nn[nH]n1,inactive: 21.3%
22,O=C(OC1CN2CCC1CC2)c1cccc(Cl)c1 (stereo not given),inactive: -57.8%
23,O=[N+]([O-])c1ccc(O)c(/C=N/Nc2ccc([N+](=O)[O-])cc2[N+](=O)[O-])c1,inactive: -4.38%
24,CC(=O)NC(SC(=S)N(C)C)C(Cl)(Cl)Cl (stereo not given),inactive: 18.7%
25,O=[N+]([O-])c1ncn(CCn2cnc([N+](=O)[O-])n2)n1,inactive: -10.5%
26,O=[As](O)(c1ccccc1)c1ccc(O)cc1,inactive: -2.17%
